Reference: ChEMBL document CHEMBL4368891, “Conformationally restricted quinazolone derivatives as PI3Kδ-selective inhibitors: the design, synthesis and biological evaluation” (Medchemcomm, 2019)

Conditions: human, microsomes

- CLH: 0.1299 mL/min/kg
Compound: O=C(O)Cc1ccccc1Nc1c(Cl)cccc1Cl [DICLOFENAC]
